Assay: Ratio of LD50 to ED50 evaluated for its antiarrhythmic potency
Assay type: functional, Heart

For CCN(CC)CC(=O)Nc1c(C)cccc1C [LIDOCAINE], which Ratio is on record?
The Ratio was 8.21.
